# Measurements reported in DBAASP.
# System: Escherichia coli K-12
# Test: ≥ marks a high value that may be exact or a test limit, other limits are often not marked, values filed in µg/mL are converted to µM
structure (smiles),measurement,value
CC(C)C[C@H](NC(=O)[C@H](CC(C)C)NC(=O)[C@H](CC(N)=O)NC(=O)[C@H](CCCCN)NC(=O)[C@H](CC(C)C)NC(=O)[C@H](CC(N)=O)NC(=O)[C@@H](N)C(C)C)C(=O)N[C@@H](CCCN=C(N)N)C(=O)O [VNLKNLLR],MIC,≥ 128 µM
